Data taken from ChEMBL document CHEMBL1143672, “Synthesis and pharmacology of site-specific cocaine abuse treatment agents: restricted rotation analogues of methylphenidate” (J Med Chem, 2007).
pKi: −log10 of the molar value. Counter-ions that a name gives are not always drawn.

Chains of the proteins cited; added tags and fusions are not shown.
UniProt Q9WTR4, whole entry: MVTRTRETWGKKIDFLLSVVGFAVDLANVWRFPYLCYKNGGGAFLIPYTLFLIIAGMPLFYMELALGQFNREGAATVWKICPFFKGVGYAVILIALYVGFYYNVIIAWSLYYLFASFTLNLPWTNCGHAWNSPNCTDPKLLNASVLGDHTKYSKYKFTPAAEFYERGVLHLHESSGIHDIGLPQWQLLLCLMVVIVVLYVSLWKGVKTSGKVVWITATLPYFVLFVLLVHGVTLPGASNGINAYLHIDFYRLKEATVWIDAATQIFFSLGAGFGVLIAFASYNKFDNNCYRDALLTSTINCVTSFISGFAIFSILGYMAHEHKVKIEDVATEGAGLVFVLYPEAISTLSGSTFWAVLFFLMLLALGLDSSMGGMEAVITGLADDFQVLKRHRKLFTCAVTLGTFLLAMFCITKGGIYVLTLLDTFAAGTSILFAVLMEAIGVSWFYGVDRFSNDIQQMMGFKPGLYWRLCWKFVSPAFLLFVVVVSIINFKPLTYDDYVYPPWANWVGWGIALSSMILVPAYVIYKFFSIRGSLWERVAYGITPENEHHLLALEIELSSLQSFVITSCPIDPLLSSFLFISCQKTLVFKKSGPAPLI

Molecular target: Norepinephrine transporter (Rattus norvegicus, UniProt Q9WTR4)
Assay: Displacement of [3H]nisoxetine from NET in Sprague-Dawley rat cortical tissue

SMILES: COC(=O)[C@H]1[C@@H](OC(=O)c2ccccc2)C[C@@H]2CC[C@H]1N2C [COCAINE HYDROCHLORIDE]
- pKi: 5.71
